Compound activity deposited in PubChem BioAssay by Broad Institute.
Shown are actives, neighbours in structure and some others; about 1.3% of the full set was active somewhere.
SR-BI DiI inh = mouse SR-BI HDL lipid transfer inhibition; Q61009; ldlA[mSR-BI] CHO cells, DiI-HDL uptake fluorescence, 3 h; inhibition, % at 12.5 µM; 0.96% of 320,000 active; AID 488896;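 active means mean replicate inhibition of at least 70% and a set share of replicates each scoring 70 or more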;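 further: 0% = median of neutral control wells and 100% = median of positive control wells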
INS-1E GSIS act = primary screen for activators of insulin secretion dependent on glucose, INS-1E cells, GLuc reporter luminescence; INS-1E GLuc reporter insulin secretion, 2-3 h; activation, % at 16.6 µM; 0.61% of 370,000 active; AID 743287;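 active means lowest replicate activation of at least 40%, so every replicate reaches that level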;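 further: 0% = median of neutral control wells and 100% = median of IBMX positive control wells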
Yeast UUG start-1 = alters start codon recognition fidelity in yeast; AID 602363; activity score, % at 18.7 µM; 350,000 tested, 0.13% active; S. cerevisiae UUG-firefly luciferase reporter, luminescence/redox ratio;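 active means replicate mean at a twofold rise or more, about +100% in these data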;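 further: firefly luciferase made from a UUG start codon reports start codon fidelity; reporter light over untreated wells divided by growth signal over untreated wells; some hits fall short of that in this replicate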
SR-BI uptake up = activators of SR-BI mediated HDL lipid uptake; 0.096% of 320,000 active; activation, % at 12.5 µM; CHO ldlA[mSR-BI] cells, DiI-HDL uptake fluorescence, 3 h; 100 = double the neutral-control signal;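 active means mean replicate activation of at least 60% and every replicate at or above 60%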;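 further: 0% = median plate neutral-control signal and 100% = twice that signal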
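Test system: SR-BI-overexpressing, LDLR-lacking CHO cells; Also added: labelled HDL, 10 µg/mL; Measured by: bottom-read cell fluorescence after medium removal, ex 550/em 595 nm; Timing: 3 h uptake period with compound, 37 °C; Buffer or medium: F12, 0.5% BSA, 25 mM HEPES; Doses: single compound concentration, delivered by pin transfer.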
DiI quencher = counter-screen for SR-BI lipid transfer inhibitors: DiI fluorescence quenchers. shares compounds with SR-BI DiI inh. cell-free DiI-HDL fluorescence quenching, 30 min. AC50, µM (highest dose often 35 µM), without a hit: top-dose activity change, negative = quenching. 20% of 470 active. AID 540326;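 active means quenching, a falling signal, with AC50 below a set limit tied to the top valid dose, actives reach about 32 µM in these data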
Yeast UUG start-2 = modulators of start codon recognition fidelity in yeast; shares compounds with Yeast UUG start-1; 540 tested, under 10 active; S. cerevisiae UUG-start firefly luciferase, luminescence, 4 h; 100% means double the DMSO signal; activation, % at 38 µM;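 active means signal increase whose fitted curve reaches an absolute level of 40 at a concentration under 10 µM; inactive means activity opposite to the expected increase, or the rest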
An asterisk follows results filed as active; / = no result.

SMILES	SR-BI DiI inh	INS-1E GSIS act	Yeast UUG start-1	SR-BI uptake up	others
COc1ccc(C(=O)OC2CC[C@@]3(C)C4CCC5[C@]6(O)CC(O)[C@@]7(O)C(CN8CC(C)CCC8[C@@]7(C)O)[C@]6(O)C[C@@]53O[C@]24O)cc1OC (some centres undefined)	-3	46*	-11	3
COc1ccc(C(=O)OC2C[C@H]3CC[C@H](C2)N3C)cc1OC (some centres undefined)	-4	-5	-1	4
COC(=O)[C@H]1[C@H](CO)[C@H]2Cn3c(ccc(C4=CCCCC4)c3=O)[C@@H]1N2CCc1ccccc1	/	-8	/	/
Cc1cc(N(CCCl)CCCl)ccc1/C=N/N=C(\N)c1cnccn1	44	-6	/	-44
Cc1cc(N(CCCl)CCCl)ccc1C=Cc1ccncn1	76*	-8	-11	-76
CN(C)C(=O)[C@H]1[C@H](CO)[C@H]2Cn3c(cccc3=O)[C@@H]1N2CC1CC1	/	14	-14	/
COc1cc(C(=O)Nc2ccc(Br)cc2C(=O)c2ccccc2)cc(OC)c1OC	81*	/	/	-81
CC(=O)N1[C@@H]2Cn3c(ccc(-c4cccc(C(=O)N(C)C)c4)c3=O)[C@H]1[C@@H](C(=O)O)[C@@H]2CO	/	14	/	/
c1ccc(N2[C@@H]3CC[C@H]2c2ccncc2C3)cc1	/	48*	/	/
CC(=O)N1C[C@@H]2N[C@H](C1)C2c1ccc(Br)cc1 (some centres undefined)	/	-12	/	/
C=CCN1[C@@H]2CN(CC(F)(F)F)C[C@H]1C2c1ccc(Br)cc1 (some centres undefined)	/	4	/	/
COc1cc(C(=O)NN=Cc2ccc(N(CCCl)CCCl)cc2)cc(OC)c1OC	76*	/	-13	-76
O=C(N/N=C/c1c(O)n(Cc2ccco2)c(=O)[nH]c1=O)c1ccccc1O	80*	19	-17	-80
O=C(N/N=C/c1c(O)n(C2CCCCC2)c(=S)[nH]c1=O)c1ccccc1O	130*	10	-17	-130
CC(C)c1ccc(-n2c(O)c(/C=N/NC(=O)c3ccccc3O)c(=O)[nH]c2=S)cc1	107*	-4	-26	-107
O=C(N/N=C/c1c(O)n(C2CCCCC2)c(=S)[nH]c1=O)c1ccccc1	15	14	-10	-15
CC(C)c1ccc(-n2c(O)c(/C=N/NC(=O)c3ccncc3)c(=O)[nH]c2=O)cc1	12	-11	/	-12
O=C(Cc1ccccn1)N1CCCCN2[C@H](C1)[C@@H](c1ccc(C#Cc3ccccc3)cc1)[C@@H]2CO	/	16	8	/
Cc1cccc(C2=NCC(=O)N(CC(=O)NCc3ccco3)c3sc4c(c32)CCCC4)c1	77*	/	7	-77
COc1ccc(C2=NCC(=O)N(CC(=O)NCc3ccco3)c3sc4c(c32)CCCC4)cc1	27	-36	8	-27
CCCCn1c(O)c(/C=N/NC(=O)c2ccncc2)c(=O)[nH]c1=O	-25	9	-33	25
CC(C)CCCn1c(O)c(/C=C2/C=CC=N2)c(=O)[nH]c1=O	21	53*	/	-21
COC(=O)C1=C(C(=O)OC)C2OC1c1cc3ccccc3cc12	-4	118*	/	4
COC(=O)C1=C(c2ccc3ccccc3c2)C[C@@H]2CC[C@H]1N2C	-3	0	-11	3
O=C1CNC[C@@H]2[C@H](c3ccc(Br)cc3)[C@H](CO)N12	/	4	/	/
CCN(CC)C(=O)c1ccc(NC(=O)c2ccc(-c3nn(C)c(=O)c4ccccc34)cc2)cc1	81*	6	/	-81
COC(=O)[C@@H]1[C@@H](CO)[C@@H]2Cn3c(ccc(-c4ccccc4F)c3=O)[C@H]1N2CC1CCCC1	/	-3	/	/
CC(=O)O[C@H]1CC[C@@]2(C)C(=CC(=O)C3C2CC[C@@]2(C)C3C[C@H](OC(C)=O)[C@@H]2OC(C)=O)C1 (some centres undefined)	-66	8	-23	66*
O=C1NC(=O)C(=Cc2ccc(-c3ccccc3[N+](=O)[O-])o2)C(=O)N1	77*	14	-42	-77
O=[N+]([O-])c1ccc(N2CCOCC2)c2cccnc12	-2	75*	10	2

2 records drawn at random from those above:
SMILES	SR-BI DiI inh	INS-1E GSIS act	Yeast UUG start-1	SR-BI uptake up	others
CCCCn1c(O)c(/C=N/NC(=O)c2ccncc2)c(=O)[nH]c1=O	-25	9	-33	25
O=[N+]([O-])c1ccc(N2CCOCC2)c2cccnc12	-2	75*	10	2

Additional records follow.
SMILES	SR-BI DiI inh	INS-1E GSIS act	Yeast UUG start-1	SR-BI uptake up	others
O=C(O)CCCc1ccc(N(CCCl)CCCl)cc1	-1	9	11	12
O=c1[nH]cnc2nc(-c3ccc(N(CCCl)CCCl)cc3)[nH]c12	36	58*	-16	-36
CCC(=NCCC(c1ccccc1)c1ccccc1)c1c(O)[nH]c(=O)[nH]c1=O	-9	75	0	9
CCC(=NC(C)c1ccccc1)c1c(O)[nH]c(=O)[nH]c1=O (centres undefined)	-20	66*	-23	20
CC(C)NC(=O)N1C[C@@H]2C(c3ccccc3)[C@H](C1)N2C (some centres undefined)	/	-7	/	/
Cc1cc(Br)cn2c(CC(=O)N3CCCCC3)c(-c3ccc(F)cc3)nc12	/	54*	/	/
O=S1(=O)N(CCN2CC=C(c3c[nH]c4cc(F)ccc34)CC2)c2cccc3c2N1CCC3	79*	-7	-10	-79
Cc1nc2ccccc2c(=O)n1/N=C/c1cc(Br)cc(Br)c1O	85*	9	/	-85
C=CCN1[C@@H]2CN(C(C)=O)C[C@H]1C2c1ccc(Br)cc1 (some centres undefined)	/	20	/	/
COc1ccc(CN2C(=O)NC(=O)/C(=C/c3ccc(OC)c(OC)c3OC)C2=O)cc1	-380	-13	/	380*
COc1ccc(CN2C(=O)NC(=O)/C(=C/c3cc(OC)c(OC)c(OC)c3)C2=O)cc1	1	-8	-2	-1
O=C(c1cc2cc(Br)ccc2[nH]1)N1CCC2(CC1)OCCO2	-424	-4	-15	424*
CN1[C@@H]2CN(S(C)(=O)=O)C[C@H]1C2c1ccc(Br)cc1 (some centres undefined)	/	-9	/	/
CS(=O)(=O)N1C[C@@H]2N[C@H](C1)C2c1ccccc1 (some centres undefined)	/	15	/	/
N=C1c2ccccc2CN1c1ccc(F)c([N+](=O)[O-])c1	1	67*	-12	-1
N=C1c2ccccc2CN1c1cccc([N+](=O)[O-])c1	6	2	/	-6
CC(C)(C)c1ccc(S(=O)(=O)N2CC3CC(C2)c2cccc(=O)n2C3)cc1 (centres undefined)	-12	3	-1	12	DiI quencher=0%
COc1ccc(S(=O)(=O)N2CC3CC(C2)c2cccc(=O)n2C3)cc1 (centres undefined)	9	0	/	-9
COC(=O)[C@H]1[C@H](CO)[C@H]2Cn3c(ccc(-c4cccc(OC)c4)c3=O)[C@@H]1N2CC1CC1	/	6	/	/
CCCCCCn1c(=O)c(C(=O)Nc2cnccn2)c(O)c2ccccc21	82*	3	/	-82	DiI quencher=-5%
O=C(Nc1ccccc1F)OC1CN2CCC1CC2 (centres undefined)	84*	-23	165*	-84	DiI quencher=-3%;Yeast UUG start-2=2
CC=Cc1ccc2n(c1=O)C[C@H]1[C@H](CO)[C@@H](C(=O)N(C)C)[C@@H]2N1C (mixture of isomers)	/	24	/	/
CCCCOC(=O)C1=C(N)OC2=C(C(=O)CCC2)[C@]12C(=O)Nc1ccccc12	-8	/	125*	8	Yeast UUG start-2=0
COC(=O)[C@H]1[C@H](CO)[C@H]2Cn3c(ccc(C4=CCCCC4)c3=O)[C@@H]1N2C(=O)CC1CC1	/	1	/	/

Five structures out of the list, sorted by molar mass, smallest number first.
SMILES	SR-BI DiI inh	INS-1E GSIS act	Yeast UUG start-1	SR-BI uptake up	others
O=C(Nc1ccccc1F)OC1CN2CCC1CC2 (centres undefined)	84*	-23	165*	-84	DiI quencher=-3%;Yeast UUG start-2=2
O=C(N/N=C/c1c(O)n(Cc2ccco2)c(=O)[nH]c1=O)c1ccccc1O	80*	19	-17	-80
CCC(=NCCC(c1ccccc1)c1ccccc1)c1c(O)[nH]c(=O)[nH]c1=O	-9	75	0	9
CC(C)c1ccc(-n2c(O)c(/C=N/NC(=O)c3ccncc3)c(=O)[nH]c2=O)cc1	12	-11	/	-12
O=S1(=O)N(CCN2CC=C(c3c[nH]c4cc(F)ccc34)CC2)c2cccc3c2N1CCC3	79*	-7	-10	-79
